Results as given in ChEMBL document CHEMBL2169872, “(S)-N-(2,5-Dimethylphenyl)-1-(quinoline-8-ylsulfonyl)pyrrolidine-2-carboxamide as a small molecule inhibitor probe for the study of respiratory syncytial virus infection” (J Med Chem, 2012).

Test: Selectivity index, ratio of CC50 for human Hep2 cells to EC50 for Respiratory syncytial virus Long infected in human Hep2 cells

SMILES	selectivity ratio
Cc1ccccc1NC(=O)[C@@H]1CCCN1S(=O)(=O)c1cccc2cccnc12	2.1
Cc1cccc(NC(=O)[C@@H]2CCCN2S(=O)(=O)c2cccc3cccnc23)c1	0.5
O=C(Nc1ccccc1)[C@@H]1CCCN1S(=O)(=O)c1cccc2cccnc12	0.7
Cc1cc(C)cc(NC(=O)[C@@H]2CCCN2S(=O)(=O)c2cccc3cccnc23)c1	0.6
Cc1ccc(C)c(NC(=O)[C@@H]2CCCN2S(=O)(=O)c2cccc3cccnc23)c1	13.4
Cc1ccc(C(F)(F)F)cc1NC(=O)[C@@H]1CCCN1S(=O)(=O)c1cccc2cccnc12	0.1
COc1ccc(C)c(NC(=O)[C@@H]2CCCN2S(=O)(=O)c2cccc3cccnc23)c1	10.4
Cc1ccc(C(C)C)cc1NC(=O)[C@@H]1CCCN1S(=O)(=O)c1cccc2cccnc12	0.2
NC(=O)c1ncn([C@@H]2O[C@H](CO)[C@@H](O)[C@H]2O)n1 [RIBAVIRIN]	3.6
